Measured values taken from patent publication US20130316985A1, “GPR35 Ligands And Uses Thereof” (CORNING INCORPORATED, priority 2012, published 2013).

The chains behind the UniProt entries cited, without tags or fusion partners.
UniProt Q9HC97, whole entry: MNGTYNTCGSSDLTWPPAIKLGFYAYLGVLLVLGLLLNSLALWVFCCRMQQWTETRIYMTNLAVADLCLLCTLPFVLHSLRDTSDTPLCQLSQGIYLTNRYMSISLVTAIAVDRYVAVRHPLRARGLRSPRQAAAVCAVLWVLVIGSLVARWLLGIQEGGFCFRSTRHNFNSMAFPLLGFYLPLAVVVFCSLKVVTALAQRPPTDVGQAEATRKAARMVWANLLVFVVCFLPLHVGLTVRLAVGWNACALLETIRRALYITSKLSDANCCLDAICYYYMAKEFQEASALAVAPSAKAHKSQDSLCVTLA

Key:
[1] = molecular target: T1, GPR35 (Homo sapiens, UniProt Q9HC97); assay: Tango β-arrestin translocation gene reporter assay in U2OS-GPR35-bla cells; assay type: cell-based
[2] = molecular target: T1, GPR35; assay: DMR agonism assay in native HT-29 cells (Epic optical biosensor); settings: maximal DMR response in HT-29 (2,5-DNP: amplitude at 50 min)

CC(=O)C(=Cc1cc(O)c(O)c([N+](=O)[O-])c1)C(C)=O
efficacy (Tango, normalized to maximal response of zaprinast) ([1]; U2OS-GPR35-bla, zaprinast maximal response in same plate = 100%): 13%
Efficacy Tango ([1]; maximal response normalized to the zaprinast maximal response): 13 ± 1 % zaprinast
Efficacy DMR [2]: 207 ± 14 pm
